System: HeLa human cervical tumour cells
Assay: Proliferation Assay with HeLa cells
Type: cell-based
Conditions: 96 h, 4 days, crystal violet
Procedure: Cultivated tumour cells (MCF7, hormone dependent human mammary carcinoma cells, ATCC HTB22; NCI-H460, human non-small cell lung carcinoma cells, ATCC HTB-177; DU 145, hormone-independent human prostate carcinoma cells, ATCC HTB-81; HeLa-MaTu, human cervical carcinoma cells, EPO-GmbH, Berlin; HeLa-MaTu-ADR, multidrug-resistant human cervical carcinoma cells, EPO-GmbH, Berlin; HeLa human cervical tumour cells, ATCC CCL-2; B16F10 mouse melanoma cells, ATCC CRL-6475) were plated at a density of 5000 cells/well (MCF7, DU145, HeLa-MaTu-ADR), 3000 cells/well (NCI-H460, HeLa-MaTu, HeLa), or 1000 cells/well (B16F10) in a 96-well multititer plate in 200 μL of their respective growth medium supplemented 10% fetal calf serum.
After 24 hours, the cells of one plate (zero-point plate) were stained with crystal violet (see below), while the medium of the other plates was replaced by fresh culture medium (200 μl), to which the test substances were added in various concentrations (0 μM, as well as in the range of 0.01-30 μM; the final concentration of the solvent dimethyl sulfoxide was 0.5%). […] Cell proliferation was determined by staining the cells with crystal violet: the cells were fixed by adding 20 μl/measuring point of an 11% glutaric aldehyde solution for 15 minutes at room temperature. […] The extinction was determined by photometry at a wavelength of 595 nm. […]

How did the IC50 turn out when `COc1ccc(Oc2cc(NCCC(F)(F)F)c3ncc(-c4ccc(C(=O)NC5CC5)c(C)c4)n3n2)c(F)c1F` [Compound A27, N-cyclopropyl-4-{6-(2,3-difluoro-4-methoxyphenoxy)-8-[(3,3,3-trifluoropropyl)amino]imidazo[1,2-b]pyridazin-3-yl}-2-methylbenzamide] was run?
Its IC50 is < 25 nM.
